Test [1] can be described thus: Selectivity ratio of Ki for rat delta opioid receptor to guinea pig kappa opioid receptor.
The species named for test [2] is Rattus norvegicus. In words: Selectivity ratio of Ki for rat delta opioid receptor to rat mu opioid receptor.
Test [3] concerns the target Mu-type opioid receptor (Rattus norvegicus, UniProt P33535). In words: Displacement of [3H]DAMGO from mu opioid receptor in rat brain membrane. Type of test: cell membranes.
The target of test [4] is Delta-type opioid receptor (Mus musculus) (UniProt P32300). Briefly: Antagonist activity at delta opioid receptor in mouse vas deferens assessed as inhibition of DPDPE-stimulated muscle contraction. Type of test: functional, tissue-based.

Amino acid sequences for entries named in this document (tags omitted).
UniProt P33535, whole entry: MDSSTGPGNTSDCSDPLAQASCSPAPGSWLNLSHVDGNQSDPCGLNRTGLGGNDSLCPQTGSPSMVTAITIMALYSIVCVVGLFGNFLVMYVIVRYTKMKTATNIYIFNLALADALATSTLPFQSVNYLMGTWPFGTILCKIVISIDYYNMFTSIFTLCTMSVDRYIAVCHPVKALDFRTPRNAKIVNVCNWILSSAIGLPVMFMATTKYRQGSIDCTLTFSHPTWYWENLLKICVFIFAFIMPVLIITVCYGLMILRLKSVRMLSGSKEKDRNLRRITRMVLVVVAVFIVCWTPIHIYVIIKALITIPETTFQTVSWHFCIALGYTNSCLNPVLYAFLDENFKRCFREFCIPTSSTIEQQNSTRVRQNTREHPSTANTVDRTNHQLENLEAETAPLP
UniProt P32300, whole entry: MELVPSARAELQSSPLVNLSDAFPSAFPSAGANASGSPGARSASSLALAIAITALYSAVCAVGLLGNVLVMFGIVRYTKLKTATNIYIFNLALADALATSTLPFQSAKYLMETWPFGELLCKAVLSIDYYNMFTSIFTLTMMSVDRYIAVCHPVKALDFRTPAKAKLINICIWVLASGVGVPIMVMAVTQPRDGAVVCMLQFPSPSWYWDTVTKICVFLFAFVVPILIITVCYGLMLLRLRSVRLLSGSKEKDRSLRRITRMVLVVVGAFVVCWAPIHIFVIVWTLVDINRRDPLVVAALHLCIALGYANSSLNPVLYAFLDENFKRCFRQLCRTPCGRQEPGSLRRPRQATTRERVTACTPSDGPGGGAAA

pKi: −log10 of the molar value. Non-standard residues stand in square brackets, D forms with d. Residues, ends and D or L forms follow the SMILES beside them. Phe(2,6-Me2,4-CONH2) = Cc1cc(C(N)=O)cc(C)c1C[C@H](N)C(=O)O; Tic = O=C(O)[C@@H]1Cc2ccccc2CN1 Some results are limits rather than exact numbers.

Consider `Cc1cc(C(N)=O)cc(C)c1C[C@H](N)C(=O)N1Cc2ccccc2C[C@H]1C(=O)N[C@@H](Cc1ccccc1)C(=O)N[C@@H](Cc1ccccc1)C(=O)O` (H-[Phe(2,6-Me2,4-CONH2)][Tic]FF-OH), for which the Ratio Ki in test [1] was greater than 2000; in test [2], 4410. In addition, the negative logarithm of the Ki (pKi) in test [3] is 5.66.
For the molecule `Cc1cc(C(=O)NCCc2ccc(-c3ccccc3)cc2)cc(C)c1C[C@H](N)C(=O)N1Cc2ccccc2C[C@H]1C(=O)N[C@@H](Cc1ccccc1)C(=O)N[C@@H](Cc1ccccc1)C(=O)O`, the Ke in test [4] is 3.07 nM.

Source of the values: ChEMBL document CHEMBL1154618, “Agonist vs antagonist behavior of delta opioid peptides containing novel phenylalanine analogues in place of Tyr(1)” (J Med Chem, 2009).
